## Ab-14 light chain CDR variants: yeast mating affinities

Values reported by Li et al. 2023, doi:10.1038/s41467-023-39022-2 (FLAb copy).

Antigen: PDVDLGDISGINAS, a 14-residue peptide of the SARS-CoV-2 spike HR2 region.

Each scFv is VH, three GGGGS repeats, VL, as in the parent Ab-14, and differs from it in the CDRs of the light chain only.
VH: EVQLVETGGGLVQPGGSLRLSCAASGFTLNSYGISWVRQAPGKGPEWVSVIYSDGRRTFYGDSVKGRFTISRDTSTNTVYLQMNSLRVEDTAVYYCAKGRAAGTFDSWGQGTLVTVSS
VL: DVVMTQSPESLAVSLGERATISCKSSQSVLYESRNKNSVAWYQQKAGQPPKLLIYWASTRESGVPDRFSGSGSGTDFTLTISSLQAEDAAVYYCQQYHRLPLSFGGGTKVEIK

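The parent was found by panning a naive human phage display library on the peptide. This is the validation round: designs drawn from the data on random variants, tested in the same kind of assay. Several design methods are mixed in this list. In AlphaSeq, yeast of one mating type display the scFv and yeast of the other type display the target. After mating in shaken culture at 30 °C for 16 h, diploids were selected and their barcode pairs sequenced. Each replicate has its own calibration line, from reference interactions of the BCL2 family. There are six technical replicates.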

Variants are written as CDR1, CDR2 and CDR3 of the light chain (limits as in the source). Parent: KSSQSVLYESRNKNSVA, WASTRES, QQYHRLPLS. Numbers give log10(Kd / nM), so 0 is 1 nM and 3 is 1 µM. Smaller is tighter. Averages over replicates are reported, and they cover detected replicates only. A pair that was not seen in any replicate is written "nd"; this usually means weak binding, but a binder can also be missed. A sequence measured in both rounds can read differently, since the two assays cover different ranges. The parent sequence was in this pool as ten entries: three were never detected, three once, and four in most replicates, with averages from 0.34 to 2.37. The authors averaged sequences with at least three values out of six and counted those with two or fewer as poor binders. Three control strains display no target. For all light chain designs, 4% of the pairings with them gave a signal, with a median of 2.64 and one signal in twenty below 1.59, so weak values seen in few replicates may be background. For each scFv, signals with the empty controls are counted beside the result.

KLSQSWLYESRNKNAVA, NASTRED, QQYHRLPLS: -0.47 (6 of 6 replicates; controls 5 of 18).
KSSQSWLYESRNKNSVA, HASTRES, QQYARLPLS: 0.09 (6 of 6 replicates; controls 2 of 18).
NLSLSMLHESINKHSVA, EVRTRES, QQYDRLPLS: 0.78 (6 of 6 replicates; controls 0 of 18).
KFQQEMLYESRNKNSVA, NASCRES, QQYHRLPLS: 0.15 (6 of 6 replicates; controls 1 of 18).
NVHALMNHSSEFQQSIA, DEECRDA, QQYERLPLS: 1.93 (6 of 6 replicates; controls 0 of 18).
HVSQSVLYESRNENSVA, WASTRVS, QQYHRLPWS: 1.33 (5 of 6 replicates; controls 1 of 18).
KLMTQFGHQMDHKNSIA, HVDMLAQ, QQYMHLPLI: 2.10 (5 of 6 replicates; controls 1 of 18).
RSSQSVLQESRNKNSVA, YASTRES, QQYHRLPLS: nd (0 of 6 replicates; controls 0 of 18).
HLSQSELYESRNKNSVA, NASYRES, QQYHRLPLS: 0.01 (6 of 6 replicates; controls 0 of 18).
VLSQSVLYESRNKNSVA, GASTRES, QQYHRLPLS: 0.38 (6 of 6 replicates; controls 1 of 18).
MMSQVTGLGQRHRNNVA, QTSTREE, QQYDRLPLI: 1.28 (6 of 6 replicates; controls 0 of 18).
KSSQSVLYESRNINSVA, WASTREE, QQYHRLPLS: nd (0 of 6 replicates; controls 0 of 18).
SSQQSVLYERNNKNSVA, WASTRES, QQYHRLPLS: 3.05 (5 of 6 replicates; controls 0 of 18).
KLPQSTLYESRNKNSVA, NASTREQ, QQYHRLPLS: 0.07 (6 of 6 replicates; controls 1 of 18).
NMNVGANFGKNQEQAIA, EVEDRES, QQYARLPLT: 0.79 (6 of 6 replicates; controls 2 of 18).
IVSQLMLWGMHHKNSIA, EAQTRLN, QQYDRLPLI: 3.10 (2 of 6 replicates; controls 0 of 18).
KLSQSEPYESRNKNSVA, NASTRLS, QQYHRLPLS: -0.10 (6 of 6 replicates; controls 2 of 18).
KYQQSVLTESRNKNSVA, NASTRES, QDYHQLPLS: 0.83 (6 of 6 replicates; controls 2 of 18).
KSSTSVLYESHNKNSVA, NASTRMS, QQYHRLPLS: 0.53 (6 of 6 replicates; controls 1 of 18).
KLRQSTLYESRNKNSVA, GASTRES, QQKHRLPLS: -0.07 (6 of 6 replicates; controls 1 of 18).
ILSQSVLMGSHLKNSVA, QASTRFA, QQYHRLPLM: 0.52 (6 of 6 replicates; controls 1 of 18).
KLRQSTSYESRNQNSVA, WASTRES, QQYHRLPLS: 0.97 (6 of 6 replicates; controls 2 of 18).
KLSQSDLYESRNKNSVA, NASERES, QQYHRLPLS: 0.07 (6 of 6 replicates; controls 0 of 18).
KLQQSVLYESRMKNSVA, NASQRLS, QQYHRLPLS: 0.79 (6 of 6 replicates; controls 0 of 18).
RSPQSVRYESRNKNSVA, AANTRES, QQYHRLPLS: 0.24 (6 of 6 replicates; controls 0 of 18).
KLQQSVEYESRNKNSVA, GASTRES, QQYHRLPLS: -0.22 (6 of 6 replicates; controls 0 of 18).
KLYMTVGYEQRNKSRVA, DNNTRED, QQYDRLPLS: 2.47 (2 of 6 replicates; controls 0 of 18).
KLSQSVLYESRNPNSVA, EASTRES, QQYHRLPLS: -0.22 (6 of 6 replicates; controls 0 of 18).
QISMMMNLSMHGTNNVA, QMETREK, QQYDRLPLS: 2.38 (5 of 6 replicates; controls 0 of 18).
KLSQSDLYESRNKNSVA, DASTRCS, QQYHRLPLS: -0.15 (6 of 6 replicates; controls 0 of 18).
KISQSVLYEDRNKNSVA, NASQRES, QQYHRLPLS: -0.30 (6 of 6 replicates; controls 2 of 18).
KSSQSVLYEGRNKNSVA, EASTRES, QQYHRLPLS: 0.27 (6 of 6 replicates; controls 1 of 18).
KLMMLGDYESRNKNNVA, QASQREQ, QQYHRLPLS: -0.56 (6 of 6 replicates; controls 2 of 18).
KSSQSVLYESRNGNSVA, WASTRES, QQYHRLPLS: 2.12 (6 of 6 replicates; controls 1 of 18).
KLSQEKLYESRNKNSVA, DASTRES, QQYHRLPLS: -0.18 (6 of 6 replicates; controls 0 of 18).
KSSQSVLGEQRNKNSVA, DGSTRES, QQYHRLPLS: -0.02 (6 of 6 replicates; controls 1 of 18).
KVYCGVDYEDRNKNSVA, HASQRES, QQYHRLPLS: 0.12 (6 of 6 replicates; controls 1 of 18).
KWSQLVLEESRNKSSVA, NASTREE, QQYHRLPLS: 0.78 (6 of 6 replicates; controls 1 of 18).
HLSDSVLYESRNKNSVA, NASTREQ, QQYHRLPLN: 0.56 (6 of 6 replicates; controls 1 of 18).
KSMQSMLGESRNKNSVA, WASSRPD, QHYHRLPLS: 1.38 (5 of 6 replicates; controls 1 of 18).
MISDMGLHDSRIQNSVA, NNSTREA, QQYDRLPLS: nd (0 of 6 replicates; controls 0 of 18).
KLEQSVMLESRNVNAVA, SASRREL, QQYHRLPLS: -0.06 (6 of 6 replicates; controls 1 of 18).
KQSQSGMMESRNQNQVA, QASTRLS, QQYHRLPLS: 0.41 (6 of 6 replicates; controls 1 of 18).
MITAAMNAYGGSRSNVA, DKEISVN, QQYHHLPLS: 0.91 (6 of 6 replicates; controls 0 of 18).
MVTQMAMQGMTNKRSVA, NAETREN, QQYHRLPLI: 0.79 (6 of 6 replicates; controls 0 of 18).
SLTSHEEEKKGAEASVA, EAVMLES, QQYHQLPLM: 1.69 (6 of 6 replicates; controls 0 of 18).
KGSQSVLYESRNKNSVA, EATTRES, QQYHRLPLS: 0.32 (6 of 6 replicates; controls 1 of 18).
MISDLMLQGSRAKNPIA, NAETREY, QQYHRLPLE: 0.70 (6 of 6 replicates; controls 1 of 18).
KVSQSFLYESRNKNSVA, GASTRES, QQYHRLTLS: -0.24 (6 of 6 replicates; controls 0 of 18).
QLAVERGQEYKAGAAIA, GKTTKEH, QQYAMLPLS: 0.74 (6 of 6 replicates; controls 2 of 18).
KLSQSWLYEDRPKNSVA, NASTRMQ, QQYHRLPLS: -0.01 (6 of 6 replicates; controls 1 of 18).